Patent publication US20200253907A1, “Compositions and Methods for Treating Neurodegenerative Diseases” (The Regents of the University of California, priority 2017, published 2020)

Columns and labels:
[1] = system: primary rat hippocampal neurons; settings: 200 μM (FIG. 18); pretreated 2 hours; Aβ15-25 peptide 24-48 hours
[2] = system: primary mouse hippocampal neurons; settings: 200 μM (FIG. 17); pretreated 2 hours; Aβ15-25 peptide 24-48 hours

Structure (SMILES): CCCCCCCCOC(=O)C(=O)CCC(=O)O [octyl α-KG, octyl α-ketoglutarate]
- protection against Aβ induced cell death [1]: protects primary rat hippocampal neurons
- protection against Aβ induced neuronal dysfunction and cell death [2]: protects primary mouse hippocampal neurons
